Measured properties of organic chemicals

Source: data files of OPERA 2.9 (Mansouri et al.), github.com/kmansouri/OPERA.

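The OPERA project collected these measurements from public sources as training and test data for property models. The files give a single number for a compound and property, which may rest on several reports. How each value was measured is not recorded, so precision varies. The measured form (salt, isomer or mixture) is not always the one drawn. Some entries may be limits or estimates that an upstream database listed as plain numbers.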

Melting points are in °C.
The boiling point refers to atmospheric pressure (760 mmHg), by the definition of the set.
The octanol-water partition coefficient is given as log10; larger values mean a more lipophilic compound.
Water solubility is log10 of mol/L, nominally at 25 °C; higher is more soluble.
Vapor pressures (log10 mmHg) refer to near room temperature, 15 to 30 °C; higher is more volatile.
Henry's law constant (air-water partitioning) is log10 of atm·m3/mol, nominally at 25 °C.
fu is the fraction unbound in human plasma, from 0 to 1.
Clint is human hepatic intrinsic clearance in µL/min per million cells; 0 means that no clearance was seen.
"n/a" marks a cell with nothing listed here.

MP (°C) | BP (°C) | logP (octanol/water) | water solubility (log10 mol/L) | log vapor pressure (log10 mmHg) | Henry's law constant (log10 atm·m3/mol) | fu | hepatic Clint (µL/min/10^6 cells) | compound
185 | n/a | n/a | -2.196 | n/a | n/a | n/a | n/a | CC(=O)Nc1ccc(S(=O)(=O)CCO)cc1
86 | 256 | n/a | n/a | n/a | n/a | n/a | n/a | COC(=O)C(c1ccccc1Oc1cc(Cl)ncn1)C(OC)OC (configuration not stated)
n/a | n/a | n/a | n/a | -7.813 | -9.103 | 0.02251 | 14.58 | COc1nc(C)nc(NC(=O)NS(=O)(=O)c2ccccc2OCCCl)n1
n/a | n/a | 0.36 | -5.261 | n/a | n/a | n/a | n/a | COc1cc2[nH]c(=O)c(=O)[nH]c2cc1[N+](=O)[O-]
n/a | n/a | 1.59 | -1.617 | -6.437 | n/a | n/a | n/a | CC(C)(C)C(CCC(=O)O)CC(=O)O (configuration not stated)
n/a | 134 | n/a | n/a | 0.947 | n/a | n/a | n/a | COC(=O)C(F)(F)C(F)(F)C(F)(F)OC(F)=C(F)F
n/a | n/a | 1.487 | -2.947 | -2.979 | n/a | n/a | n/a | COc1ccc([N+](=O)[O-])cc1OC(C)=O
244.7 | n/a | -3.81 | n/a | n/a | n/a | n/a | n/a | O=S(=O)([O-])CC(O)CCl.[Na+] (configuration not stated)
180 | n/a | n/a | -7.38 | n/a | n/a | n/a | n/a | CCN(CC)c1ccc(N=Nc2c(Br)cc([N+](=O)[O-])cc2[N+](=O)[O-])c(NC(C)=O)c1
90.9 | n/a | 10.4 | -7.142 | n/a | n/a | n/a | n/a | S=C(SSCCCCCCSSC(=S)N(Cc1ccccc1)Cc1ccccc1)N(Cc1ccccc1)Cc1ccccc1
n/a | n/a | 3.6 | -2.371 | -1.745 | n/a | n/a | n/a | CC1=CC(C)C(CO)C(C)C1 (configuration not stated)
n/a | n/a | 4.5 | -5.9 | n/a | n/a | n/a | 29.9 | CC#C[C@]1(O)CC[C@H]2[C@@H]3CCC4=CC(=O)CCC4=C3[C@@H](c3ccc(N(C)C)cc3)C[C@@]21C
274 | n/a | -2.71 | n/a | n/a | n/a | n/a | n/a | Cc1ccc(C(=O)Nc2ccc(S(=O)(=O)[O-])cc2)cc1N.[Na+]
n/a | n/a | -0.1 | -2.523 | n/a | n/a | n/a | n/a | CC(=O)CC(=O)Nc1ccc2[nH]c(=O)[nH]c2c1
n/a | 266 | 2.31 | n/a | -4.578 | n/a | n/a | n/a | C=C1CCOC(c2ccc(O)c(OC)c2)C1 (configuration not stated)
n/a | n/a | n/a | -1.677 | -9.639 | n/a | n/a | n/a | NNC(=O)c1cccc(C(=O)NN)c1
n/a | n/a | n/a | -2.114 | 2.432 | n/a | n/a | n/a | COC(C(F)(F)F)C(F)(F)F
n/a | n/a | -2.266 | -2.394 | n/a | n/a | n/a | n/a | Nc1ccc(/N=N/c2ccc(/N=N/c3ccc(/N=N/c4c(S(=O)(=O)[O-])cc5cc(NC(=O)c6ccccc6)ccc5c4O)c4ccc(S(=O)(=O)[O-])cc34)c3ccc(S(=O)(=O)[O-])cc23)cc1S(=O)(=O)[O-].[Na+].[Na+].[Na+].[Na+]
n/a | n/a | 2.2 | -2.606 | -5.103 | n/a | n/a | n/a | CCOC(=O)COC(=O)c1ccccc1C(=O)OCC
183.7 | n/a | -2.8 | n/a | n/a | n/a | n/a | n/a | CS(=O)(=O)O.CS(=O)(=O)O.Nc1c(N)n2n(c1=O)CCC2
-10 | n/a | n/a | -3.239 | n/a | n/a | n/a | n/a | CCC(CC)C(=O)OCCOCCOCCOC(=O)C(CC)CC
n/a | 267.3 | 5.9 | -5.097 | -0.852 | n/a | n/a | n/a | CC1=CCCC(C)(C)C1CCC(C)C=O (configuration not stated)

4 of these entries, quoted again:

{"smiles": "CC(=O)CC(=O)Nc1ccc2[nH]c(=O)[nH]c2c1", "logP (octanol/water)": "-0.1", "water solubility (log10 mol/L)": "-2.523"}
{"smiles": "O=S(=O)([O-])CC(O)CCl.[Na+]", "stereo": "configuration not stated", "MP (°C)": "244.7", "logP (octanol/water)": "-3.81"}
{"smiles": "COC(C(F)(F)F)C(F)(F)F", "water solubility (log10 mol/L)": "-2.114", "log vapor pressure (log10 mmHg)": "2.432"}
{"smiles": "COc1nc(C)nc(NC(=O)NS(=O)(=O)c2ccccc2OCCCl)n1", "log vapor pressure (log10 mmHg)": "-7.813", "Henry's law constant (log10 atm·m3/mol)": "-9.103", "fu": "0.02251", "hepatic Clint (µL/min/10^6 cells)": "14.58"}